In publication PMC8615155, “Chlorophyllin Inhibits Mammalian Thioredoxin Reductase 1 and Triggers Cancer Cell Death” (Antioxidants, 2021):
pIC50: −log10 of the molar value.

Experiments:
[1] = target: T1, TrxR1 (Rattus norvegicus, UniProt O89049); details: read-out: IC50 in Trx-coupled insulin reduction; NADPH-reduced TrxR incubated 30 min
T1 sequence (O89049 1-499): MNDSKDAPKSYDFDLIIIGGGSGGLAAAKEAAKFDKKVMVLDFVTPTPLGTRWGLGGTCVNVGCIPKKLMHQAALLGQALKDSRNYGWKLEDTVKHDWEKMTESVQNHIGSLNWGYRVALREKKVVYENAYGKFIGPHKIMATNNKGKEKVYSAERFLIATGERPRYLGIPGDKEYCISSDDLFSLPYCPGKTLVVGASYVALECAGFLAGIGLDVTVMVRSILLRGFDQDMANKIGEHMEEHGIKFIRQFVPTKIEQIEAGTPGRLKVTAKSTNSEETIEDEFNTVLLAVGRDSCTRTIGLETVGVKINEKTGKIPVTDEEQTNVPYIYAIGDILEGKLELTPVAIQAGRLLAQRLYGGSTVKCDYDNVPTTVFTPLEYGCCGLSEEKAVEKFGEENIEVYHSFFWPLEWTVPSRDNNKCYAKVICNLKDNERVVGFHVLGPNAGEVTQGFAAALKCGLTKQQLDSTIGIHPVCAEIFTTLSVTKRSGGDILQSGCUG

[2] = target: T2, wild type TrxR1 (Rattus norvegicus, UniProt O89049); assay: TrxR1 DTNB reduction assay
T2 sequence (O89049 1-499): T1 sequence (O89049 1-499)

Sodium copper chlorophyll [chlorophyllin]
pIC50 [1]: 5.04
Time dependence of TrxR1 inhibition ([2]; NADPH pre-reduced TrxR1, DTNB as substrate): time-dependent inhibition
Reversibility of TrxR1 inhibition after desalting ([2]; NAP-5 column desalting after incubation): irreversible
Sensitivity of oxidized TrxR1 to inhibition ([2]; TrxR1 not pre-reduced by NADPH, 1 h incubation): insensitive
Kinact, second-order rate of inhibition of DTNB reducing activity ([2]; chlorophyllin 0 to 4 µM): 116 ± 8.17 M⁻¹ s⁻¹
pIC50 ([2]; read-out: IC50 on TrxR1's DTNB reducing activity, NADPH pre-reduced TrxR1, DTNB as substrate): 5.58
